Measured values from ChEMBL document CHEMBL1124889, “Alfred Burger award address. Bioactive alkaloids. 4. Results of recent investigations with colchicine and physostigmine” (J Med Chem, 1990).

Protein sequences, listed by entry. Tags and fused reporters are not part of them. Lines headed by an entry give the natural chain unless they say otherwise; changes in a name come on top.
UniProt O42275: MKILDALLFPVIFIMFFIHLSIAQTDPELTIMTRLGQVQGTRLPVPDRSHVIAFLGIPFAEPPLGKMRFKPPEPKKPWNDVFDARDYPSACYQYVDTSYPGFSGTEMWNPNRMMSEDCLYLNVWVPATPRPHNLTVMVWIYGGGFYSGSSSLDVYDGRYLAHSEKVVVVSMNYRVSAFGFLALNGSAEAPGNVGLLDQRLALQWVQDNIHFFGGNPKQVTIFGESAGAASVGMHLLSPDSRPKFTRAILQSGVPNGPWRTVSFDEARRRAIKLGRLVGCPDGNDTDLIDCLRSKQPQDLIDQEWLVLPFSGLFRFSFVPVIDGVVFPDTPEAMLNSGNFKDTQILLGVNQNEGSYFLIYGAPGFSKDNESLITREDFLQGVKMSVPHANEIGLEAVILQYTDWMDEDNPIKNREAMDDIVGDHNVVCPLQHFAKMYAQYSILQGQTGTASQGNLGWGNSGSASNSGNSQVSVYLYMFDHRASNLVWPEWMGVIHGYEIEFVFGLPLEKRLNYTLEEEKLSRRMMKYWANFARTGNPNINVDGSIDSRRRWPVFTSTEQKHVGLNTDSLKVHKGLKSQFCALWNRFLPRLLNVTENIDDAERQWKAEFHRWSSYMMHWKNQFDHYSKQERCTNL

Target: Acetylcholinesterase (Electrophorus electricus, UniProt O42275)
Experiment: Inhibitory activity against Acetylcholinesterase in electric eel

CNC(=O)Oc1ccc2c(c1)[C@]1(C)CCN[C@@H]1N2C
IC50: 57 nM
